In PubChem BioAssay (Tox21):
The list shows a part of the results, in another mix than the full data. Results filed as inconclusive are left out. A call without a number means that no potency is given here. The source made the active and inactive calls. The call rests on the fitted dose curve; in most records, active means well fitted activation curve with a large enough effect in the repeat runs; inconclusive means weak or mixed curves; inactive means flat fitted curve, though single readings scatter.

Experiment: A CellTox Green Cytotoxicity Assay to monitor cytotoxicity in HEK293 cells - 24 hour (AID 1224875); further: nearly all actives have a fitted effect of over 45% in size
Details: CellTox Green fluorescence; series mostly up to 76.8 µM
Description: National Center for Advancing Translational Sciences [NCATS]
NIH Chemical Genomics Center [NCGC]
U.S. Environmental Protection Agency [EPA]
National Institutes of Environmental Health Sciences [NIEHS]
National Toxicology Program [NTP]
Cell-based models are critical for drug discovery. Determining the natural cytotoxic effects resulting from test compounds is an essential research activity. A CellTox Green Cytotoxicity Assay to monitor cytotoxicity in real time of continues cell culture during 40 hours of the compound treatment was used to screen Tox21 10K library compounds in Hek293 cells. CellTox Green Cytotoxicity Assay is a nonlytic, homogeneous, biofluorescent method to measure cytotoxicity in cell culture after experimental manipulation. The assay system uses a proprietary asymmetric cyanine dye that is excluded from viable cells but preferentially stains the dead cell's DNA. […] Viable cells produce no appreciable increases in fluorescence. Therefore, the fluorescence signal produced by the binding interaction with dead cell DNA is proportional to cytotoxicity.
The mixture of Hek293 cell suspension and reagents were dispensed at 600cells/6 ul/well in 1536-well tissue culture treated black solid bottom plates using a Multidrop dispenser. After the assay plates were incubated at a 37 C/5% CO2 incubator for 5 hours, 23 nL of compounds dissolved in DMSO, positive and negative controls was transferred to the assay plate by a pintool work station. The plates were incubated at 37 C for 40 hours. The fluorescence intensity were measured at 0h, 8h, 16h, 24h, 32h and 40h time points using ViewLux plate reader during compound treatment.
Potency means the concentration at half of the fitted maximal effect.

Structure (SMILES) | Potency
Cc1cccc([N+](=O)[O-])c1[N+](=O)[O-] | inactive
N#CBr | inactive
CN(C)CCCl | inactive
COc1ccc([N+](=O)[O-])cc1[N+](=O)[O-] | inactive
Nc1cc([N+](=O)[O-])cc([N+](=O)[O-])c1O | inactive
COP(C)(=O)OC | inactive
C/C1=C2N=C(/C=C3N=C(/C(C)=C4\[N-][C@@](C)([C@@H]5N=C1[C@](C)(CCC(=O)NC[C@@H](C)OP(=O)([O-])O[C@H]1[C@@H](O)[C@@H](n6cnc7cc(C)c(C)cc76)O[C@@H]1CO)[C@H]5CC(N)=O)[C@@](C)(CC(N)=O)[C@@H]4CCC(N)=O)[C@@](C)(CC(N)=O)[C@@H]\3CCC(N)=O)C(C)(C)[C@@H]/2CCC(N)=O.[C-]#N.[Co+3] | inactive
Cc1c([N+](=O)[O-])cccc1[N+](=O)[O-] | inactive
N=C(N)N[N+](=O)[O-] | inactive
OCCSCCO | inactive
CCOP(=O)(CC)OCC | inactive
CC(C)OP(C)(=O)OC(C)C | inactive
CP(=O)(O)OCCC[Si](O)(O)O | inactive
CC(C)N(CCO)C(C)C | inactive
[NH4+].[O-][Cl+3]([O-])([O-])[O-] | inactive
CCOP(=O)(CC)Oc1ccc([N+](=O)[O-])cc1 (centres undefined) | inactive
O=[N+]([O-])c1cccc([N+](=O)[O-])c1 | active: 45.5 µM
CCN(CC)CCCl | inactive
Cc1ccc([N+](=O)[O-])cc1[N+](=O)[O-] | inactive
